This note sets out measurements from patent publication US20240424071A1, “NOVEL MUTANT OF RECOMBINANT GANODERMA LUCIDUM IMMUNOMODULATORY PROTEIN AND USE THEREOF” (CHANGCHUN INTELLICROWN PHARMACEUTICAL CO., LTD., priority 2021, published 2024).

The subject of test [1] is LI6669 human liver cancer orthotopic transplantation tumor. As to the kind of experiment: LI6669 human liver cancer orthotopic transplantation tumor model (PDX), survival. It is filed as in vivo, BALB/c nude mouse. To be noted: Group 7, 50 mg/kg Q4D i.p. for 28 days; solvent control 17 days. The source says:
This example performs a pharmacodynamic evaluation of the test product, the recombination protein as shown in SEQ ID NO: 14, in a BALB/c male nude mouse model of orthotopic transplantation of liver cancer LI6669.
LI6669 is a HuPrime® orthotopic transplantation model originated from a patient's liver cancer. This model has a certain tendency of tumor collapse.
Tumor tissue was collected from a LI6669 tumor-bearing mouse, a HuPrime® orthotopic transplantation model of liver, and cut to tumor pieces with a diameter of 2-3 mm, which were inoculated into the upper left lobe of liver of a Balb/c nude mouse.
When the average tumor volume of the tumor-bearing mice reached about 50-150 mm^3, the mice were randomly grouped by weight according to Table 3 of “3. Design of Experiment”. The grouping day was set as Day 0, and the administration began on Day 1. […].
After tumor cell inoculation, route monitoring comprises the tumor growth and the effect of treatment on normal behaviors of animals, specially including the activity, food intake and water consumption, weight gain or loss, eyes, fur of experimental animals, and other abnormal conditions. The clinical symptoms observed during the experiments were all recorded in the original data. After drug administration, the mice were measured twice a week for their weights. […]

Test [2] relates to CR5082B organoid. The test is described as follows: PDXO organoid growth inhibition (CTG 3D), colorectal cancer CR5082B. It is filed as cell-based. The conditions noted are these: BRAF V600E, read Day 5. Here is the method:
(§1) • a) 20 μl of 100× Dispase solution was added in to a 6-well plate (containing 2 mL of organism culture medium), and organoid was collected from each well. b) The 6-well plate was returned into the incubator and cultured at 37° C. for 30 min. c) The organoid was collected from the 6-well plate, and transferred by a pre-wetted 100 μm filter into a 50 mL plastic tube. d) Once all the wells were filtered by 100 μm filter, the flow was filtered by a pre-wetting 20 μm filter. e) The 20 μm filter was inverted, and the organoid was collected in a new 50 mL tube. f) The organoid was collected and re-suspended in the corresponding culture medium. The organoid was calculated for their concentrations. g) The cell concentration was adjusted with the medium to an appropriate concentration. h) Matrigel was added to a final concentration of 5% v/v, and the organoid was suspended on ice. i) 40 μL of cell suspension was added with a Multidrop dispenser into a 384-well plate. […]
(§2) 40 μL of CTG 3D was added into each well by a Multidrop dispenser; the content was mixed on a plate oscillator for 5 min; and then the place was incubated at room temperature in dark for 30 min. The luminous signal was read on an Envision plate reader. […]

Test [3] relates to CR3099B organoid. The test is described as follows: PDXO organoid growth inhibition (CTG 3D), colorectal cancer CR3099B. The class given is cell-based. The conditions noted are these: EGFR (p.R521K)/KRAS (p.G12D), read Day 5. Here is the method: as §1, §2
The test system of test [4] is CR5043B organoid. As to the kind of experiment: PDXO organoid growth inhibition (CTG 3D), colorectal cancer CR5043B. The class given is cell-based. To be noted: KRAS G13D, read Day 5. Here is the method:
as §1, §2

With Cetuximab, the “Median Survival” value in test [1] came to 17 days. For the same substance, the IC50 was 459.8 µg/mL in test [2], more than 500 µg/mL in test [3] and 277.853 µg/mL in test [4]. Also, the “Maximum Inhibition Rate (%)” value in test [2] worked out at 90.92%; in test [3], 47.57%; in test [4], 93.67%.
